According to US7700654B2 (LTS Lohmann Therapie-Systeme AG, priority 2005, dated 2010):

Test system: LNCaP cells
Assay: growth inhibition of human prostate carcinoma cells (cell counting)
Type: cell-based
Conditions: for proliferation of LNCaP cells versus untreated cells (FIG. 4): 100 μM
Source text: The growth of prostate cells and prostate cancer cells is originally dependent on androgens.
The cells were trypsinized and counted using a counting cell chamber on the indicated days.

In the case of `CCCCNS(=O)(=O)c1ccccc1` [NBBS, N-butylbenzenesulfonamide], the “growth of LNCaP cells (FIG. 4)” value (10 μM, day 8 of treatment) is reported as “reduced growth”, the “proliferation of LNCaP cells versus untreated cells (FIG. 4)” value (day 5 of treatment) is reported as “markedly slower proliferation than the untreated cells” and the “proliferation of LNCaP cells versus untreated cells (FIG. 4)” value (day 8 of treatment) is reported as “even more prominent”.
